Reference: patent US6844009B1, “Media in the form of complex dispersions, method for preparing same and uses” (Capsulis, priority 1999, dated 2005)

Test system: total anti-HSA antibodies in the serum of the mice
Assay: ELISA of total anti-HSA antibodies in serum of mice injected subcutaneously with HSA preparations
Type: in vivo, mice (female BALB/c)
Details: subcutaneous injection at t=0 and t=10 days, 20 μg HSA per 100 μl, serum at t=23 days, titer = serum dilution factor with mean OD 490 nm above positivity threshold
Procedure: The model chosen is human serum albumin (HSA) injected subcutaneously in mice. The immune response is measured by the ELISA test, which quantitatively determines the total anti-HSA antibodies in the serum of the mice.
The preparations are injected subcutaneously into groups of 4 female BALB/c mice at the rate of one injection at t=0 and then one injection at t=10 days. A control group is not injected, one group receives the aqueous dispersion and the other group receives the complex dispersion. The mice are sacrificed at t=23 days, the blood is withdrawn into heparinized tubes and the serum is isolated by centrifuging.
Quantitative determination of the total immunoglobulins is carried out by the ELISA test on these sera according to a conventional protocol using rabbit immunoglobulins against mouse immunoglobulins labeled with peroxidase. […] For each serum, the reaction is carried out with respect to a series of dilutions from 1/25 to 1/(25×2^11).
The measurement is carried out by recording the optical density (OD) at 490 nm as a function of the dilution of the serum. […]
The results are expressed as mean titer, defined as the dilution factor for the serum for which the mean OD for the four mice of the group is greater than the positivity threshold.

Substance: HSA in PBS: human serum albumin (HSA) antigen in PBS buffer, not encapsulated
- Mean titre of total IgGs: 0
